# Binding of CDR-mutated scFvs to a peptide of the spike HR2 region

Binding partner: SARS-CoV-2 spike HR2 peptide, sequence PDVDLGDISGINAS.

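The starting antibody came from a phage panning campaign against this peptide. AAYL50 was designed without a model: most single CDR substitutions and a random sample of double and triple ones. AlphaSeq pools MATa yeast showing the antibodies with MATalpha yeast showing the peptide. Mating (16 h, 30 °C) was followed by selection of diploids and sequencing of their barcodes. The ratio of observed to expected reads was calibrated, replicate by replicate, on BCL2-family standards whose Kd was known from biolayer interferometry. Each pool was mated in three replicate cultures.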

Ab-14 is the parent antibody, in scFv form: VH, then a 15-residue (Gly4Ser)3 linker, then VL. The heavy chain is unchanged in all variants.
VH: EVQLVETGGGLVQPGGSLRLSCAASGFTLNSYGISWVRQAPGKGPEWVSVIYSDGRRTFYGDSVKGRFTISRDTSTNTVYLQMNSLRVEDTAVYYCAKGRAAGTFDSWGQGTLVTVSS
VL: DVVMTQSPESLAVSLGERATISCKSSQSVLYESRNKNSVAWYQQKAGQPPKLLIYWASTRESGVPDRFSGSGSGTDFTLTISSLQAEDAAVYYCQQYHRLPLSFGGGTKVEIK

Each variant is given by its three light chain CDRs, as the data file delimits them; those of the parent are KSSQSVLYESRNKNSVA, WASTRES, QQYHRLPLS. Every variant below is changed at Y31 of the VL (sequential numbering). Values are log10 of the apparent Kd in nM; lower means stronger binding. "nd" marks a missing value. The strain was present, yet no cells mated with the target were sequenced in that replicate, which points to weak or no binding. Three control strains display no target. For library AAYL50, 18% of the pairings with them gave a signal, with a median of 4.19 and one signal in twenty below 2.99, so weak values seen in few replicates may be background. For each scFv, signals with the empty controls are counted beside the result. In this assay the parent's reference entry averaged 0.65; its copy inside this library read 1.68.

* KSSQSVLAESRNKNSVA | WASTRES | QQYHRLPLS: 0.81, 0.99, 0.86 (controls 3 of 9)
* KSSQSVLRESGNQNSVA | WASTRES | QQYHRLPLS: nd, nd, nd (controls 0 of 9)
* KIQQSVLMESRNKNSVA | WASTRES | QQYHRLPLS: 0.28, 0.53, 0.40 (controls 4 of 9)
* KSSQSVRNESRNKNSVA | WASTRES | QQYHRLPLS: 1.04, 1.32, 1.44 (controls 4 of 9)
* KSSQSVLFESRNKNSVA | WASTRES | QQYHRLMLS: 1.82, 1.76, 1.96 (controls 2 of 9)
* KSSQSVLRWSRRKNSVA | WASTRES | QQYHRLPLS: nd, 2.54, 5.94 (controls 2 of 9)
* KSSQSVLSESRNKNSVT | WASTRES | QQYYRLPLS: nd, nd, nd (controls 1 of 9)
* KSSQSVLFESRNVNSVA | WASTRES | QQYHRLVLS: nd, 4.52, nd (controls 1 of 9)
* KSSQSVLMESQNKNSVA | WAVTRES | QQYHRLPLS: 0.67, 0.80, 0.78 (controls 1 of 9)
* KSSQSVLCESRNKNSVA | WASTRES | QQYHRYPLF: 1.34, 1.43, 1.58 (controls 1 of 9)
* KSSQSVLRESRNKNSVG | WASTRES | QSYHRLPLS: nd, nd, nd (controls 0 of 9)
* KSSQSVLEESRNTNSVA | WASQRES | QQYHRLPLS: nd, nd, 4.26 (controls 2 of 9)
* KSSQSVLFQSRNKNSVA | WASTRES | QQYMRLPLS: 0.95, 1.02, 1.01 (controls 5 of 9)
* KSSQSVLSESRNINSVA | WASTRES | QQYHRLPLS: 0.61, 0.87, 0.75 (controls 2 of 9)
* KSSQEVLDESRNKNSVA | WASTRES | QQYHRLPLS: 0.00, 0.23, 0.14 (controls 0 of 9)
* KSVQSVLSESRNKNSVA | WASTRES | QQYKRLPLS: nd, nd, nd (controls 0 of 9)
* KVSQSVLNESRNKNSVA | WASTRES | QQYHRLPFS: 0.40, 0.59, 0.50 (controls 1 of 9)
* KSSQGVLGESRNKNSVA | WAKTRES | QQYHRLPLS: 1.44, 1.68, 1.68 (controls 0 of 9)
* KSSQSVLGWSRNKNSVA | WASTRES | CQYHRLPLS: 5.86, 3.34, 4.91 (controls 1 of 9)
* QSSQSVLEESRNKNSVA | WASTRES | QQYHILPLS: 0.24, 0.48, 0.54 (controls 3 of 9)
* KTSQSVLCESRNKNSVA | WASTRES | QQYHRLPLQ: 1.26, 1.50, 1.20 (controls 0 of 9)
* KSSQSVLNESTNKNEVA | WASTRES | QQYHRLPLS: 0.21, 0.55, 0.40 (controls 3 of 9)
* KSSFSVLEESRNKNSVA | WAATRES | QQYHRLPLS: 0.35, 0.71, 0.66 (controls 1 of 9)
* KSSQSVLGESRNCNSVA | WASTRES | QQVHRLPLS: nd, 3.26, 4.05 (controls 4 of 9)
* KSSQSVLGISRNKNSVA | WASTRES | QQNHRLPLS: 0.80, 0.78, 0.87 (controls 0 of 9)
* KSSQSVLVESRNKNSVA | WAATRES | QQYHRFPLS: 1.09, 1.31, 1.23 (controls 3 of 9)
* KSSQSVLDESRNKNSVH | WASTRES | QQYHRLPCS: nd, nd, nd (controls 3 of 9)
* KSSQSVLMESRNKNSVA | VASTREP | QQYHRLPLS: nd, nd, 1.11 (controls 0 of 9)
* KSSQSDLNESRNKNSVA | WASTRES | QQYHRLPLW: 0.86, 0.84, 1.01 (controls 0 of 9)
* KQSQSVLKESRNKNSVA | WASTRES | QNYHRLPLS: 2.71, 2.98, 3.13 (controls 2 of 9)
* KSSQSVLMESRNKNSVD | SASTRES | QQYHRLPLS: nd, nd, nd (controls 0 of 9)
* KSSQSVLSESRNKNSVA | WPSTAES | QQYHRLPLS: nd, 5.15, 5.19 (controls 0 of 9)
* KSSQSVLNESRNKRSVA | WASTRES | QQYHRLDLS: nd, nd, nd (controls 1 of 9)
* KSSQSVLLESRNKNSVA | WASTRES | GQYHRLILS: 1.12, 1.15, 1.29 (controls 3 of 9)
* KSSQSVLLESRNKNSVA | WASTRES | QQAHRLPLF: 1.91, 2.02, 1.97 (controls 0 of 9)
* KSSWSVLFESRNKNSVA | WASTRES | QQYHRLRLS: 0.73, 0.90, 0.89 (controls 3 of 9)
* KCSQSVLSESRSKNSVA | WASTRES | QQYHRLPLS: nd, nd, nd (controls 0 of 9)
* KSSQSVLPEWRNKNQVA | WASTRES | QQYHRLPLS: 2.13, 2.22, 2.37 (controls 1 of 9)

Source: Engelhart et al. 2022 (doi:10.1038/s41597-022-01779-4), MIT Lincoln Laboratory and A-Alpha Bio; data file from the FLAb repository.